# Apparent affinities of Ab-95 variants for a coronavirus HR2 peptide

Binding partner: SARS-CoV-2 spike HR2 peptide, sequence PDVDLGDISGINAS.

Parent: Ab-95, a human scFv built as VH, a 15-residue (Gly4Ser)3 linker, VL. Only the CDRs of the light chain vary.
VH: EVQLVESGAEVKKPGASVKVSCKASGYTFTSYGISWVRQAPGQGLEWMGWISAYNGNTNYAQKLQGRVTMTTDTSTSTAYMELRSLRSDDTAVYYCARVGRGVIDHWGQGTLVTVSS
VL: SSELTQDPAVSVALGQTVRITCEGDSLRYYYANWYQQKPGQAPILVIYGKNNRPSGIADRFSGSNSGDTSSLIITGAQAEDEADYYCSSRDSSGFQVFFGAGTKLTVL

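The parent was found by panning a naive human phage display library on the peptide. Variants in AAYL52 differ from the parent at up to three CDR positions; double and triple changes were sampled at random. In AlphaSeq, yeast of one mating type display the scFv and yeast of the other type display the target. Mating (16 h, 30 °C) was followed by selection of diploids and sequencing of their barcodes. Scores were corrected for input abundance and mapped to Kd with protein pairs of known affinity run in the same pool. The assay was run in three technical replicates.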

The parent's light chain CDRs are EGDSLRYYYAN, GKNNRPS, SSRDSSGFQVF; each variant's own CDRs replace them letter for letter. Affinities are written as log10 Kd with Kd in nM; a lower number is a better binder. A pair that was not seen in that replicate is written "n.d."; this usually means weak binding, but a binder can also be missed. As a blank, each scFv also met three strains without target: over library AAYL52, 28% of these pairings were detected, typically at 3.91 and seldom below 2.90. For each scFv, signals with the empty controls are counted beside the result, with their mean in brackets.

CDR-L1	CDR-L2	CDR-L3	log10 Kd, replicates	empty controls
EGDSLRQYYFN	RKNNRPS	SSRDSSGFQVF	2.83 / 3.32 / 3.99	5 of 9 (4.26)
EGDSLRYYYAN	GKNNRWS	SSYDSSGFQVF	n.d. / 3.73 / n.d.	2 of 9 (3.95)
EGDSLFYYYAN	GKNNRPS	SSRDSSIFQVF	n.d. / n.d. / n.d.	5 of 9 (3.30)
EGDSLRYYYAN	GKNNRPS	TSRDSSHLQVF	n.d. / n.d. / 4.06	1 of 9 (3.56)
EGDSLRDYYAN	GKCNRPS	SSRDSSGFQNF	3.64 / 3.68 / n.d.	3 of 9 (4.31)
EGDSLRYMQEN	GKNNRPS	SSRDSSGFQVF	3.19 / 3.36 / 3.99	1 of 9 (3.76)
EGDSLRYNYAG	GKYNRPS	SSRDSSGFQVF	3.99 / 4.01 / 4.61	2 of 9 (4.41)
EGDSLRYQYAN	GKNNRPS	SSRDSSMFQNF	3.06 / n.d. / 2.62	0 of 9
EGDSLRQYYAN	DKNNRPS	SSRDSSSFQVF	n.d. / 3.35 / 4.56	2 of 9 (4.50)
EGDSLRYYYAL	GGNNRPS	SSRDSSGFQIF	n.d. / 5.66 / n.d.	4 of 9 (3.88)
EGDSLRYYYAN	GKNNRPK	SSRDSSGFTKF	2.96 / 4.22 / 3.71	3 of 9 (3.62)
EGDSLRQYSAN	GKNNRPS	SSRDSSGFRVF	1.82 / 1.85 / 1.47	6 of 9 (3.75)
EGDSLRRYYAN	GKSNRPS	SSRDDSGFQVF	2.73 / n.d. / 3.09	0 of 9
EGDSLRYYYAN	GKNNRPS	SSVDSSGGEVF	3.85 / n.d. / 4.22	5 of 9 (3.69)
EFDGLRYYYAN	QKNNRPS	SSRDSSGFQVF	n.d. / n.d. / 3.95	1 of 9 (3.42)
EGDSLRYTYAN	GKNNRCS	SSRISSGFQVF	2.97 / 2.32 / 2.16	2 of 9 (3.64)
EGDSLRYYYAN	GKNNRPS	CSRDKLGFQVF	n.d. / n.d. / n.d.	0 of 9
EGDSLRYYYEN	GMNNRPS	SSRDSGGFQVF	4.72 / 5.87 / n.d.	4 of 9 (4.20)
EGDSLRYYYAD	GKNNRPS	IERDSSGFQVF	n.d. / n.d. / n.d.	0 of 9
EGDSLRYYRAN	GKNNRPS	SSRYSSGFVVF	2.82 / 1.98 / 2.13	4 of 9 (3.99)
EGDSLRFYHAN	GKNNRPS	SSRDSNGFQVF	2.48 / 2.48 / 2.35	3 of 9 (4.44)
EGDSLYYYYAN	GKFERPS	SSRDSSGFQVF	3.59 / 3.02 / 3.51	6 of 9 (3.75)
EGDSLRYYYAN	GKNLIPS	SSRDSSGFMVF	3.67 / 4.43 / n.d.	2 of 9 (3.07)
RGDSLRYYKAN	GKNNRPS	SSRDSSGFQFF	3.22 / 3.20 / 3.31	3 of 9 (4.50)
EGYSLEYYYAN	EKNNRPS	SSRDSSGFQVF	3.18 / 3.23 / n.d.	2 of 9 (3.53)
EGDSLRYYYAN	GKNNRPS	DSRVSSGFFVF	n.d. / n.d. / n.d.	3 of 9 (3.96)
EGDSLRYNYAN	IWNNRPS	SSRDSSGFQVF	5.81 / n.d. / 3.47	4 of 9 (3.70)
EGDSLRYYYAN	GKCNRPS	SQRFSSGFQVF	3.80 / 3.66 / 4.01	3 of 9 (4.37)
EGDSLRTLYAN	GKNNRPS	MSRDSSGFQVF	1.58 / 1.33 / 1.00	3 of 9 (3.98)
EGDSLRYYKAN	GKENRPS	SYRDSSGFQVF	1.97 / 1.61 / 1.22	0 of 9
EGDSLRYTYGN	GKNNRPS	SSRDSSLFQVF	2.43 / 2.82 / 3.61	2 of 9 (3.70)
EGDSLRMYYAN	GKNNRPY	SSRDSSGFQVM	3.52 / 3.36 / n.d.	3 of 9 (4.37)
EGDSLVYYYAN	GKNNRPS	SSYDSSMFQVF	n.d. / 3.69 / n.d.	1 of 9 (3.65)
EGDSLIYYYAN	GKNPRPS	SSRDSSGFQVF	4.06 / n.d. / n.d.	4 of 9 (4.53)
EGDSLRYYYAH	GKNNRPS	SSPDSSGFQVF	n.d. / n.d. / n.d.	0 of 9
EIDSLRYYYPN	GKNNRPS	SSRDSSGNQVF	2.83 / 2.95 / 3.00	2 of 9 (3.89)
EGDSLRYYYAN	GKNNRSE	SSPDSSGFQVF	2.30 / 2.47 / 2.21	1 of 9 (3.29)
EGDSLRYYYAN	GKNNRPS	SSRDSSGFLFV	n.d. / n.d. / 4.22	2 of 9 (3.92)
EGDSLRYYYAN	GKYNRPS	SSRDSSAFQSF	n.d. / n.d. / 3.58	3 of 9 (3.79)
EGDSTRYYYAN	GKFNRES	SSRDSSGFQVF	5.18 / n.d. / n.d.	1 of 9 (4.91)
EGDELRGYYAN	GKNNRPS	SSRDSSGFYVF	2.54 / 2.31 / 1.93	4 of 9 (4.11)
EGDSLRYYYAN	GKNERPS	SSRKSSGFQDF	2.69 / 2.19 / n.d.	0 of 9
EGDKLRYYKAN	GKNNRPS	SSRDSSGFQVM	2.79 / 3.92 / n.d.	4 of 9 (3.69)
EGDSLRYYYAN	GYNGRPS	SSRDSSGWQVF	4.28 / 4.11 / 4.13	5 of 9 (4.27)
GGKSLRYYYAI	GKNNRPS	SSRDSSGFQVF	3.93 / n.d. / n.d.	3 of 9 (3.94)
EPDSLRYYYAG	GKNNRPS	SPRDSSGFQVF	4.60 / n.d. / 4.40	4 of 9 (3.73)
ECDSLRYYYAN	GKNNHAS	SSRDSSGFQVF	2.94 / 3.33 / 3.33	4 of 9 (3.66)
EGDSNPYYYAN	GKNLRPS	SSRDSSGFQVF	2.03 / 1.96 / 1.62	3 of 9 (4.25)
EGDSIRYYYAN	GKNVRPS	SSDDSSGFQVF	3.59 / 3.60 / n.d.	2 of 9 (4.03)
EGDSTRYAYAN	GKNNRPC	SSRDSSGFQVF	2.95 / 3.01 / 2.37	2 of 9 (4.32)
EGDSLSYYYAS	GKNNRPR	SSRDSSGFQVF	3.31 / 4.06 / 4.23	5 of 9 (4.52)

Excerpt, the final 6 entries:

CDR-L1	CDR-L2	CDR-L3	log10 Kd, replicates	empty controls
EPDSLRYYYAG	GKNNRPS	SPRDSSGFQVF	4.60 / n.d. / 4.40	4 of 9 (3.73)
ECDSLRYYYAN	GKNNHAS	SSRDSSGFQVF	2.94 / 3.33 / 3.33	4 of 9 (3.66)
EGDSNPYYYAN	GKNLRPS	SSRDSSGFQVF	2.03 / 1.96 / 1.62	3 of 9 (4.25)
EGDSIRYYYAN	GKNVRPS	SSDDSSGFQVF	3.59 / 3.60 / n.d.	2 of 9 (4.03)
EGDSTRYAYAN	GKNNRPC	SSRDSSGFQVF	2.95 / 3.01 / 2.37	2 of 9 (4.32)
EGDSLSYYYAS	GKNNRPR	SSRDSSGFQVF	3.31 / 4.06 / 4.23	5 of 9 (4.52)

In this assay the parent's reference entry averaged 2.31; its copy inside this library read 2.25.

Reference: Engelhart et al. 2022, doi:10.1038/s41597-022-01779-4. File: FLAb, binding data.